# From article PMC3534778 (European journal of pharmacology, 2012)
# Read-outs that look alike come from different tables or passages of the source.
# Columns and labels:
# NMDA receptor [1] = assay type: binding, rat
# NMDA receptor [2] = details: read-out: Ki, NMDA receptor; cited from earlier work
Structure (SMILES),Ki (NMDA receptor [1]) [nM],Ki (NMDA receptor [2]) [nM]
"CN[C@@]1(c2ccccc2Cl)CCCCC1=O [(R)-Ketamine, (R)-ketamine, reference compound]",2570 ± 280,
"CNC1(c2ccccc2Cl)CCCCC1=O (racemic) [(R,S)-Ketamine, reference compound]",1060 ± 140,530
"CN[C@]1(c2ccccc2Cl)CCCCC1=O [(S)-Ketamine, (S)-ketamine, reference compound]",690 ± 90,
